# Assay results as given in ChEMBL document CHEMBL4041549, “Tetrahydroisoquinoline-7-carboxamide Derivatives as New Selective Discoidin Domain Receptor 1 (DDR1) Inhibitors” (ACS Med Chem Lett, 2017).
# The chains behind the UniProt entries cited, without tags or fusion partners.
# UniProt P10721, whole entry: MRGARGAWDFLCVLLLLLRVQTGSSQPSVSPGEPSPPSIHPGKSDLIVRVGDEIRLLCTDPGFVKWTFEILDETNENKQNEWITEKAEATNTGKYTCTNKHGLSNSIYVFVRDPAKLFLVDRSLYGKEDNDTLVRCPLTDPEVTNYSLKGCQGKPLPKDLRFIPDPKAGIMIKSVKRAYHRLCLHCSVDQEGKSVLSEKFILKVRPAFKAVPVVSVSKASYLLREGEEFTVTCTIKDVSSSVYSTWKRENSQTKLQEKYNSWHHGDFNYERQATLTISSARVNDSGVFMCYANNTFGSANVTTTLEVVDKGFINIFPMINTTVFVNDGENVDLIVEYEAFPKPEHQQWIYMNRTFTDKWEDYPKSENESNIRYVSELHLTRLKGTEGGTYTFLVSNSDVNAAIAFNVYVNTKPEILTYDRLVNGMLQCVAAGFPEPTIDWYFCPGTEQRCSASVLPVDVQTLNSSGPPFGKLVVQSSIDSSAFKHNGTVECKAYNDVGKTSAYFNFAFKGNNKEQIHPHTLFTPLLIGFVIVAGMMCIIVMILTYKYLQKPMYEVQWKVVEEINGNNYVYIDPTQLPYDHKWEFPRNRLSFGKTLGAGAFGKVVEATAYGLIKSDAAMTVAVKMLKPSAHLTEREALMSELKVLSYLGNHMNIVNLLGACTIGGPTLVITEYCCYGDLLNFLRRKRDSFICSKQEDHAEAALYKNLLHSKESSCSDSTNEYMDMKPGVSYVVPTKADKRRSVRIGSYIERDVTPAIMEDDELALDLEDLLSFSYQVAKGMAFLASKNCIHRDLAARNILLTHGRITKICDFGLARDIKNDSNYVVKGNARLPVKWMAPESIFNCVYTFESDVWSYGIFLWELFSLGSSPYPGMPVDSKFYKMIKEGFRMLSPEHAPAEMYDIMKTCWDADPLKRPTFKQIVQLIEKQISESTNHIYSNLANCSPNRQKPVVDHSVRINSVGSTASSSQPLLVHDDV
# Molecular target: Mast/stem cell growth factor receptor Kit (Homo sapiens, UniProt P10721)
# Assay: Inhibition of recombinant human His-tagged c-kit cytoplasmic domain (544 to 976 residues) expressed in baculovirus expression system using […] as substrate measured after 1 hr by FRET-based Z'-Lyte assay
row,IC50,Structure (SMILES)
1,> 10 µM,C[C@@H]1CN(c2cncnc2)Cc2cc(NC(=O)c3cc(CN4CCN(C)CC4)cc(C(F)(F)F)c3)ccc21
2,> 10 µM,C[C@H]1CN(c2cncnc2)Cc2cc(NC(=O)c3cc(CN4CCN(C)CC4)cc(C(F)(F)F)c3)ccc21
